Target: human CD3 protein (KACTUS) (human)
Assay: Fortebio BLI, antibody captured on AHC chip, human CD3 protein as analyte

Substance: chimeric anti-CD3 antibody SP34 (chi)
- Kd: 5.46 nM
- koff: 0.00274 s⁻¹
- kon: 501000 M⁻¹ s⁻¹

Reference: patent publication US20260085114A1
